Values of other authors as cited in paper PMC9037210, “Novel 3-(6-methylpyridin-2-yl)coumarin-based chalcones as selective inhibitors of cancer-related carbonic anhydrases IX and XII endowed with anti-proliferative activity” (Journal of Enzyme Inhibition and Medicinal Chemistry, 2022).

Target: T1, hCA II (Homo sapiens, UniProt P00918)
T1 construct: made in house
Settings: Figure 1; read-out: hCA II inhibition; cited from earlier work

For `O=Cc1ccccc1OCc1cn(CCCOc2ccc3ccc(=O)oc3c2)nn1` [V], the Ki is given as greater than 10 µM.
